Results: PubChem BioAssay AID1022 (Emory University Molecular Libraries Screening Center, 2008)
“And” between values parts separate entries of the source, which are not always exact repeats. Identical values can stand only once. The entries are a selection whose mix differs from that of the whole data set. The source made the active and inactive calls.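 How the source made its calls: active means compounds that cut the protein-peptide binding signal by more than 50% relative to plate controls in a single-dose test; inactive means the rest.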

Sequences of proteins named here, by UniProt entry; tags and fusion partners are left off.
UniProt Q07820, whole entry, looked up: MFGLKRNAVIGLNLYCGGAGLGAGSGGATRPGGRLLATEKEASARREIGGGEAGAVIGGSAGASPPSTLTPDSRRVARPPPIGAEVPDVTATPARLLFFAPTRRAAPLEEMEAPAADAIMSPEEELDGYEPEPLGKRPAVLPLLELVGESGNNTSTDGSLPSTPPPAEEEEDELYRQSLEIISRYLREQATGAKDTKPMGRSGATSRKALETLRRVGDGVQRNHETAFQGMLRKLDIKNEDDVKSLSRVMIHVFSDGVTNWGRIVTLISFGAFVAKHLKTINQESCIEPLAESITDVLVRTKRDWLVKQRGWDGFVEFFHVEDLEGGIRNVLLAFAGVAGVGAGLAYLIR

The compounds below were run against Induced myeloid leukemia cell differentiation protein Mcl-1 (Homo sapiens) (UniProt Q07820) (assay: Mcl-1/Noxa binding inhibitors, primary screen, biochemical, TR-FRET, 1536-well (AID 1022;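 further: His-tagged Mcl-1 with rhodamine Noxa BH3 peptide and terbium anti-His antibody; 0% = Mcl-1 plus Noxa peptide wells and 100% = peptide-only wells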)). Settings: TR-FRET Mcl-1/Noxa peptide binding, 2 h; at 21.7 µM; active compounds read high.

| Structure (SMILES) | inhibition |
| --- | --- |
| O=[N+]([O-])c1ccc2c(c1)nnn2O | inactive: 5.72% |
| CN(C(=O)Cc1ccccc1)[C@@H]1CC[C@]2(CCCO2)C[C@H]1N1CCCC1 | inactive: -1.49% |
| CCOP1(=S)c2c(C)nn(CCC#N)c2N=C(c2ccc(F)cc2)N1C (centres undefined) | inactive: 6.74% |
| NC(=O)Nc1ccc([As](=O)(O)O)cc1 | inactive: 2.38% |
| O=C(O)COc1ccc([As](=O)(O)O)cc1[N+](=O)[O-] | inactive: 21% |
| Nc1ccccc1[As](=O)(O)c1ccccc1 | inactive: -14.6% |
| CS(=O)(=O)c1cc([N+](=O)[O-])c2no[n+]([O-])c2c1 | active: 61% |
| CCOP1(=S)c2c(C)nn(CCC#N)c2N=C(c2ccccc2F)N1C (centres undefined) | inactive: 8.51% |
| O=P(Nc1nccs1)(Oc1ccccc1)Oc1ccccc1 | inactive: 11% |
| O=P(Nc1nccs1)(c1ccccc1)c1nc2ccccc2s1 (centres undefined) | inactive: -1.02% |
| COc1cc(C2NCCC3(OCCO3)C2(C)C)cc(OC)c1OC (centres undefined) | inactive: 2.53% |
| CCOP(=O)(Nc1cccc2ccccc12)OCC | inactive: 3.18% |
| CCCOP(=S)(Nc1nc(N)cc(=O)[nH]1)OCCC | inactive: -95.4% |
| Cc1ccc(NCCc2c([N+](=O)[O-])cc([N+](=O)[O-])cc2[N+](=O)[O-])cc1 | inactive: -12.2% |
| Nc1cccc2c([As](=O)(O)O)cccc12 | inactive: 11.5% |
| Cc1cccc(OCC(=O)OC2CN3CCC2CC3)c1 (centres undefined) | inactive: -8.55% |
| O=[As](O)(c1cccc(O)c1)c1cccc(O)c1 | inactive: 4.59% |
| O=[As](O)(O)c1cccnc1 | inactive: -6.88% |
| COc1cc(C(=O)NCC2(N3CCOCC3)CCCCC2)cc(Cl)c1OC(C)C | inactive: -1.53% |
| O=C(OC1CN2CCC1CC2)c1ccc(Cl)cc1 (centres undefined) | inactive: -1.55% |
| O=[As](O)(c1ccccc1Br)c1ccccc1Br | inactive: 3.55% |
| CC(C)/C=N\N=C(\N)N[N+](=O)[O-] | inactive: 1.48% |
| Clc1n[nH]nc1-c1nn[nH][15n]1 | inactive: 2.31% |
| CC(C)(C)C(=O)NC(Sc1ncccn1)C(Cl)(Cl)Cl (centres undefined) | inactive: 1.36% |
| CCOP(=O)(Nc1ccc(C)cn1)OCC | inactive: 11.2% |
| O=P1(Nc2ccccn2)COc2ccccc2OC1 | inactive: -1.92% |

| Structure (SMILES) | inhibition |
| --- | --- |
| Cc1ccc(OCC(=O)OC2CN3CCC2CC3)cc1 (centres undefined) | inactive: -7.43% |
| O=[As](O)(c1cccs1)c1cccs1 | inactive: -11.9% |
| O=P1(Nc2ccc(Br)cn2)COc2ccccc2OC1 | inactive: -1.01% |
| Nc1cccc([As](=O)(O)c2ccccc2)c1 | inactive: -0.98% |
| O=P1(Nc2ncccn2)COc2ccccc2OC1 | inactive: 1.44% |
| O=C(/C=C/c1ccccc1)OC1CN2CCC1CC2 (centres undefined) | inactive: -0.16% |
| CN(C)C1(CNC(=O)c2ccc(S(C)(=O)=O)cc2)CCCCC1 | inactive: -21.5% |
| Cc1nn(-c2ccccc2)c2c1P(=O)(N1CCOCC1)N(C)C(c1ccccc1)=N2 (centres undefined) | inactive: -5.11% |
| CC1CCC(C(C)C)C(OP(=O)(Nc2ccccn2)c2ccccc2)C1 (centres undefined) | inactive: -10.7% |
| O=[N+]([O-])c1ccc(Nc2ccc(Oc3ccc([N+](=O)[O-])cc3[N+](=O)[O-])cc2)c([N+](=O)[O-])c1 | inactive: -2.38% |
| Cc1cc(SC(NC=O)C(Cl)(Cl)Cl)ncn1 (centres undefined) | inactive: 4.4% |
| O=P(Nc1ccccn1)(c1cccc2ccccc12)c1cccc2ccccc12 | inactive: 10.5% |
| CCOC(=O)Nc1cccc([As](=O)(O)O)c1 | inactive: 20.3% |
| Cc1cc(SC(NC(=O)c2ccccc2)C(Cl)(Cl)Cl)nc(C(C)C)n1 (centres undefined) | inactive: -1.97% |
| CCOC(=O)Nc1ccc([As](=O)(O)O)c(O)c1 | inactive: 5.95% |
| CCC(C)N(CC(C)C)C(=S)SC(NC(C)=O)C(Cl)(Cl)Cl (centres undefined) | inactive: 1.16% |
| CCOC(=O)c1ccc(NC(=O)C(C)(CCl)SC)cc1 (centres undefined) | inactive: 14.7% |
| O=C(COc1ccccc1)OC1CN2CCC1CC2 (centres undefined) | inactive: 16.7% |
| COP1(=S)c2c(C)nn(CCC#N)c2N=C(c2ccc(F)cc2)N1C (centres undefined) | inactive: 3.87% |
| COc1ccc(N/C(=N/P(=O)(N2CCOCC2)N2CCOCC2)N2CCOCC2)cc1 | inactive: 3.06% |
| COc1ccc2nc(NP(=O)(c3ccccc3)c3ccccc3)sc2c1 | inactive: 8.06% |
| COc1cc(I)ccc1[As](=O)(O)O | inactive: -3.02% |
| O=C(OC1CN2CCC1CC2)C12CC3CC(CC(C3)C1)C2 (centres undefined) | inactive: 11.7% |
| Cc1cc(=O)[nH]c(N[N+](=O)[O-])n1 | inactive: -1.14% |
| Cc1c2c(nc3ccccc13)SC(C(Cl)Cl)C2 (centres undefined) | inactive: 9.33% |
| CC(C)NC(=O)NP(=O)(Oc1ccccc1)Oc1ccccc1 | inactive: 6.96% |

| Structure (SMILES) | inhibition |
| --- | --- |
| CCN(CC)C(=S)SC(NC=O)C(Cl)(Cl)Cl (centres undefined) | inactive: 13.1% |
| O=[N+]([O-])c1cc([N+](=O)[O-])c(-c2ccn[nH]2)s1 | active: 54.7% |
| CC(C)c1ccc(OP(=O)(Nc2ccccn2)Oc2ccccc2F)cc1 (centres undefined) | inactive: 6.4% |
| ClCCSc1nnc(-c2cccnc2)o1 | inactive: -3.42% |
| Cc1ccc2nc3c(c(C)c2c1)CC(C(Cl)Cl)S3 (centres undefined) | inactive: -3.22% |
| Cc1ccc(OP(=O)(Nc2ccc([N+](=O)[O-])cn2)Oc2ccc(C)cc2)cc1 | inactive: 20.7% |
| C[As](=O)(O)c1cccc(C(=O)O)c1 | inactive: 7.83% |
| O=[As](O)(c1ccc(O)cc1)c1ccccc1O | inactive: 7.66% |
| CCN(N=Nc1nonc1N)c1nonc1N | inactive: 10.5% |
| Nc1cccc2ccc([As](=O)(O)O)cc12 | inactive: 1.09% |
| Cc1cc(SC(NC(=O)c2ccc(F)cc2)C(Cl)(Cl)Cl)ncn1 (centres undefined) | inactive: 23.5% |
| CCOP(=O)(Nc1ccccc1)OCC | inactive: -3.08% and inactive: -7.14% |
| Cc1ccc(NP(=O)(Oc2ccccc2F)Oc2ccccc2F)nc1 | inactive: -6.86% |
| CC(=O)Nc1ccc([As](=O)(O)O)cc1 | inactive: 0.21% |
| O=C(O)c1ccccc1[As](=O)(O)O | inactive: 6.7% |
| O=P(Nc1nc2ccc(Cl)cc2s1)(c1ccccc1)c1ccccc1 | inactive: -97.2% |
| Nc1cc(N)c2nonc2c1[N+](=O)[O-] | inactive: 9.04% |
| CC(C)CC(=O)NC(Sc1ccc(Cl)cc1)C(Cl)(Cl)Cl (centres undefined) | inactive: -6.65% |
| Oc1ccccc1CNc1ccccn1 | inactive: -1.66% |
| O=C(NC(Sc1ccncn1)C(Cl)(Cl)Cl)c1ccccc1 (centres undefined) | inactive: 7.98% |
| Cc1c2non([O-])c-2c(C)[n+](=O)[n+]1[O-] | inactive: 31% |
| COc1ccccc1OP(=O)(Nc1ccc(C)cn1)Oc1ccccc1OC | inactive: -16.8% |
| Cc1ccc(OP(=O)(Nc2nccs2)Oc2ccc(C)cc2)cc1 | inactive: -0.29% |
| CN1CCCC(OC(=O)C(c2ccccc2)c2ccccc2)C1 (centres undefined) | inactive: 21.3% |
| Clc1ccc(Cl)c(NC2=NCC(CBr)S2)c1 (centres undefined) | inactive: 12.9% |
| NC(=O)c1cc([N+](=O)[O-])cc([N+](=O)[O-])c1N | inactive: 14.5% |

| Structure (SMILES) | inhibition |
| --- | --- |
| Cc1ccc(N/C(=N/P(=O)(N2CCOCC2)N2CCOCC2)N2CCOCC2)cc1 | inactive: 5.18% |
| CC(C)=N/N=C(\N)N[N+](=O)[O-] | inactive: -18.6% |
| CN(C)C(=O)OCCc1n(C)cc[n+]1C | inactive: 1.08% |
| CC1CCN(C(=O)Oc2c(Cl)cc(Cl)c3cccnc23)CC1 | inactive: -2.01% |
| Nc1ccc([As](=O)(O)c2ccc(N)cc2)cc1 | inactive: 3.34% |
| C[N+]1=C2C=CC=CC=C2SC12C([N+](=O)[O-])=CC([N+](=O)[O-])=C[C-]2[N+](=O)[O-] (centres undefined) | active: 55.4% |
| CCN(/C(=N/P(=O)(N1CCOCC1)N1CCOCC1)N1CCOCC1)c1ccc(OC)cc1 | inactive: 3.09% |
| CC(=O)N1C2C3N(C(C)=O)C1C1N(C(C)=O)C(C(N1C(C)=O)N3C(C)=O)N2C(C)=O | inactive: -10.1% |
| O=[N+]([O-])c1cccc2n[nH]nc12 | inactive: 25% |
| Cc1ccc(NP(=O)(Oc2ccccc2)Oc2ccccc2)nc1 | inactive: 0.24% |
| O=[N+]([O-])c1cc([N+](=O)[O-])c(CCNc2ccccc2)c([N+](=O)[O-])c1 | inactive: 19.1% |
| CCc1nc2c(n1)c1c(non1O)c1c2no[n+]1[O-] | inactive: 4.38% |
| COc1ccc(C2=NCC(CBr)S2)cc1 (centres undefined) | inactive: 8.58% |
| O=[N+]([O-])c1cccc(NC2=NCC(CBr)S2)c1 (centres undefined) | inactive: 5.05% |
| O=C(O)CNc1ccc([As](=O)(O)O)cc1 | inactive: 28.2% |
| CC(C)(C)C(=O)NC(Sc1ccncn1)C(Cl)(Cl)Cl (centres undefined) | inactive: 3.61% |
| O=[N+]([O-])c1ncn(CCn2ncnc2[N+](=O)[O-])n1 | inactive: 6.95% |
| O=C(Nc1cc([As](=O)(O)O)ccc1O)c1ccccc1 | inactive: 10.8% |
| C(Cc1nn[nH]n1)Cc1nn[nH]n1 | inactive: -25% |
| Nc1ccc([As](=O)(O)c2ccc([N+](=O)[O-])cc2)cc1 | inactive: -13% |
| O=C(OC1CN2CCC1CC2)c1cccc(Cl)c1 (centres undefined) | inactive: 11.4% |
| CC(=O)NC(SC(=S)N(C)C)C(Cl)(Cl)Cl (centres undefined) | inactive: 0.6% |
| O=[N+]([O-])c1ncn(CCn2cnc([N+](=O)[O-])n2)n1 | inactive: -12.4% |
| O=[As](O)(c1ccccc1)c1ccc(O)cc1 | inactive: -2.16% |
| O=P(Nc1nc2ccccc2s1)(c1ccccc1)c1ccccc1 | inactive: 8.94% |
| C[C@H]1OP(=O)(Oc2ccccc2)[C@H](O)[C@H](O)[C@H]1N=[N+]=[N-] (some centres undefined) | inactive: 8.93% |
